According to patent US8916606B2, “Therapeutic compositions and methods for targeted delivery of active agents” (William Marsh Rice University, priority 2009, dated 2014):

Test system: OSC19-Luc cells (EGFR+/GFP+)
Experiment: In vitro targeting, co-culture of OSC19-Luc and MCF-7 cells, bioluminescence
Format: cell-based
Conditions: EGFR+ and EGFR− cells co-cultured
Text: To study the targeting effects of Cet/PTX/PEG-HCCs, OSC-19 cancer cells were first retrovirally infected with GFP and firefly luciferase gene as described in literature to form OSC19-Luc cells (EGFR^+/GFP^+). See Theodossis et al., Cancer Research 2005, 63, 1818-1821. Next, the OSC19-Luc cells were mixed with MCF-7 (EGFR^−/GFP^−) cancer cells and suspended in DMEM prior to the treatment.
Applicants envisioned that after treating cells with EGFR-targeted nanovectors, the bioluminescence intensity from luciferase could be quantified by using an IVIS 200 Imaging System (Xenogen). Applicants also envisioned that if EGFR-targeted PTX/PEG-HCCs could target OSC19-Luc cells, the measured bioluminescence would be lower than that with control and untargeted PTX/PEG-HCCs.
To confirm whether the increase in EGFR^+ cell killing was the result of the targeting effect from Cet/PTX/PEG-HCCs, the mixed cells of OSC-19-Luc (EGFR^+) and MCF-7 (EGFR^−) were pretreated with EGF before treatment. […] This supports the hypothesis that Cet/PTX/PEG-HCC acts primarily through an EGFR targeting effect.

With “Cetuximab: FDA-approved monoclonal antibody that selectively binds EGFRs” the “killing of OSC19 cells in co-culture with MCF-7 (bioluminescence)” value was “no effect on the cells”.
